The source of these data is patent publication US20060040390A1, “Device, method, system, and program for intelligent in vivo cell-level chemical or genetic material delivery” (priority 2004, published 2006).

The test system of this data set is mouse fibroblasts which do not express IGF-R receptors. Kind of data set: Selectivity of Doxorubicin-alphaIR3 on mouse fibroblasts without IGF-R.

With `COc1cccc2c1C(=O)c1c(O)c3c(c(O)c1C2=O)C[C@@](O)(C(=O)CO)C[C@@H]3O[C@H]1C[C@H](N)[C@H](O)[C@H](C)O1` [Doxorubicin], the “cytotoxicity on fibroblasts which do not express IGF-R” value was “dose-dependent cytotoxicity”.
